Source: patent publication EP3442594B1, “BLOCK COPOLYMER FOR […] RESISTANCE OF TUMOURS TO CHEMOTHERAPY, ITS POLYMER-DRUG CONJUGATE, PHARMACEUTICAL COMPOSITION CONTAINING THEM, METHOD OF PREPARATION AND USE THEREOF” (Ustav makromolekularni chemie AV CR, v.v.i., priority 2016, dated 2017)
Like-named read-outs stand apart in the source and are kept apart here.

How the values were obtained:
[1] = test system: murine T-cell lymphoma EL4; conditions: 1 x 7.5 mg DOX eq./kg i.v.
Protocol: The in vivo antitumour effect of micellar diblock polymer conjugate of Example 28 carrying doxorubicin (DOX-DB) was studied on a model of murine T-cell lymphoma EL4 in the C57BL/6 inbred strains of mice. The conjugate was administered to mice intravenously (i.v.) in a single dose equivalent to 7.5 mg of doxorubicin/kg. The drug was injected 8 days after subcutaneous administration of 1 x 10^5 EL4 tumour cells, at a time when tumours are developed and the tumour bed size is about 6-8 mm in diameter. […] Further, the free doxorubicin (DOX) was used for treatment, injected at a total dose of 10 mg/kg, which, due to the different pharmacokinetics of a low molecular weight drug and the associated danger of high systemic toxicity, was injected in two partial intravenous doses on the 8th and 12th day after transplantation of tumour cells (each dose of 5 mg of doxorubicin).
Days mean the death of animals after administration of tumour cells (1 x 10^5 cells EL4 s.c. on day 0), LTS ("long term survivor") means long-term surviving mice without evidence of tumour (at least until day 70 after administration of tumour cells). The last line contains information about the median survival in groups.

[2] = not given; remark: listed apart in the source

[raft-poly(HPMA-co-MA-AH-NHN=DOX)]-GFLG-PPO-NH2 [DB-DOX]
accumulation in the tumour tissue relative to free drug at the maximum tolerated dose (EL4 T-cell lymphoma, 10 mg Dox/kg vs free drug 2 x 5 mg DOX/kg): more than 20 fold | amount of drug in the tumour tissue relative to the linear PHPMA conjugate (PHPMA-DOX) (EL4 T-cell lymphoma, dosage 10 mg Dox/kg): 4 times | time of circulation in blood compared with PHPMA-DOX and free DOX (mice with EL4 T-cell lymphoma, 10 mg Dox/kg): circulates in the bloodstream considerably longer | signs of systemic toxicity (reduced body weight, bristly hair, hunched position, eating disorders) [1]: did not induce in the treated mice any observable signs of systemic toxicity | amount of released DOX ([2]; phosphate buffer pH 5.0, 37°C, after 9 hours of incubation): more than 70% | amount of released DOX ([2]; phosphate buffer pH 7.4, 37°C, in 24 hours): up to 9%
